Experimental data published in patent US20180319847A1.

Chains of the proteins cited; added tags and fusions are not shown. Residues count along the entry.
UniProt B3EWN9, 36-89: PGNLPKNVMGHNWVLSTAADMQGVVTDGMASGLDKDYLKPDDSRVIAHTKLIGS

Molecular target: EphB2-Fc
Test: SPR titration (0.05-100 nM) on immobilised EphB2-Fc, Langmuir 1:1 fit of Req

Substance | Kd
GST-Azu 36-89 (from UniProt B3EWN9 36-89) | 61 nM
GST-Azu 36-128 (from UniProt P00282 56-148) | 23 nM
